How the values were obtained:
[1] = biological target: T1, P2X purinoceptor 4 (Homo sapiens) (UniProt Q99571); experiment: Antagonist activity at human P2X4 receptor expressed in 1321N1 cells at 10 uM incubated for 30 mins in presence of ATP by Fluo-4 dye based microplate reader assay relative to control; format: cell-based; parameters: scale not given: the % may be the effect or the level left
T1 sequence (whole entry): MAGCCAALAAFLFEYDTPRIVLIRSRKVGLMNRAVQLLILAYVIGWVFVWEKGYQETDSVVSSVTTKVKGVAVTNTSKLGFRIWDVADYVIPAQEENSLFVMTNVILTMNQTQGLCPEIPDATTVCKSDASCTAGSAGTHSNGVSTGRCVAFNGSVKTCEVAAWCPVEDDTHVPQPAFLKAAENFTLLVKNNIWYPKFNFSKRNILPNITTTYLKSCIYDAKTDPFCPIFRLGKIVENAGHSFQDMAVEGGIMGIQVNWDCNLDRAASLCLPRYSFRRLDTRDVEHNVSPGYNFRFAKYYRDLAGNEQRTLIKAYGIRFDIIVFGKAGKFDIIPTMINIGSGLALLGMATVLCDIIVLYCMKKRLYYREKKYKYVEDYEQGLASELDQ

Chains of the proteins cited; added tags and fusions are not shown. Lines headed by an entry give the natural chain unless they say otherwise; changes in a name come on top.
UniProt Q99572: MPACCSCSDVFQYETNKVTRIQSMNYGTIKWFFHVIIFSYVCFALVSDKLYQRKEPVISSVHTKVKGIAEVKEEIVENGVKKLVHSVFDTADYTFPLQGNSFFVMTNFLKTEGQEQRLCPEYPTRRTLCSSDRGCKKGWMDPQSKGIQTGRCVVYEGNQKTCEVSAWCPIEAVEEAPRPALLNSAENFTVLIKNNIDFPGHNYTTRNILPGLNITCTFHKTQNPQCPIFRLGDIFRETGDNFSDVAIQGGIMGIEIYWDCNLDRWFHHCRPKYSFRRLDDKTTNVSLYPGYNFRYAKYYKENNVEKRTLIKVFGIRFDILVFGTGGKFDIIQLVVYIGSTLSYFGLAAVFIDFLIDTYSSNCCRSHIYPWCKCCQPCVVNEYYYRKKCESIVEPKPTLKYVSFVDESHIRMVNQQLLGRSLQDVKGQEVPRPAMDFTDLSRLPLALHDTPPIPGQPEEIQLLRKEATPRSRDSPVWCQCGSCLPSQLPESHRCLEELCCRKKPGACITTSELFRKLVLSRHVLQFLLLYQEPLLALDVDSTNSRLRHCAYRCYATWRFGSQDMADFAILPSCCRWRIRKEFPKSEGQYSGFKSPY

P2X purinoceptor 7 = P2X purinoceptor 7 (Homo sapiens, UniProt Q99572); experiment: Antagonist activity at human P2X7 receptor expressed in 1321N1 cells at 10 uM incubated for 30 mins in presence of ATP by Fluo-4 dye based microplate reader assay relative to control; format: cell-based; parameters: scale not given: the % may be the effect or the level left

Question: With `C[C@@H](Nc1cc(N2CCN(C(N)=O)CC2)nc2nc(C3CC3)nn12)c1ccc2ccccc2c1` as the compound, how does the Activity [1] read?
Answer: The Activity was 33%.

Question: What about the Activity (P2X purinoceptor 7) of the same compound?
Answer: Its Activity is 11%.

From ChEMBL document CHEMBL5550216, “Discovery of Triazolopyrimidine Derivatives as Selective P2X3 Receptor Antagonists Binding to an Unprecedented Allosteric Site as Evidenced by Cryo-Electron Microscopy” (J Med Chem, 2024)
